This assay deals with recombinant human H2A-H2B dimer (human, UniProt P0C0S8 1-130; Q96A08 1-127). Description: ITC; 80 μM POLA1-NTD fragment injected into 10 μM H2A-H2B dimer in the cell; 25°C; 20 mM Tris-HCl pH 8.0, 150 mM NaCl, 5% glycerol, 0.005% Tween 20; single-site binding model. The conditions noted are these: both partners purified. For orientation: ITC needs no label: the signal is the heat of the interaction.

B1: human POLA1 N-terminal domain (HsPOLA1-NTD, residues M1 to G110) with C-terminal Twin-Strep tag (domain or fragment, UniProt P09884 1-110, looked up)
chain: MAPVHGDDSLSDSGSFVSSRARREKKSKKGRQEALERLKKAKAGEKYKYEVEDFTGVYEEVDEEQYSKLVQARQDDDWIVDDDGIGYVEDGREIFDDDLEDDALDADEKG
notes: POLA1, polymerase subunit of Pol alpha, human; residues M1 to G110; also called HsPOLA1NTD-Twin-Strep; Pol1-NTD; source: E. coli Rosetta2 (DE3), purified (Ni-NTA, SEC, PreScission cleavage); not shown: 8His-MBP, N-terminal, cleaved; Twin-Strep, C-terminal, kept
In the case of B1, the Kd (usually the constant that tells how readily two partners part at equilibrium) was found to be 19 nM and the stoichiometry N – broadly, the number of molecules, sites or subunits per partner or assembly – was 1.

These data come from PMC6166128, “Histone H2A‐H2B binding by Pol α in the eukaryotic replisome contributes to the maintenance of repressive chromatin” (The EMBO Journal, 2018).
